Values of other authors, collected in US20180280372A1, “COMPOSITIONS AND METHODS FOR INHIBITING AUTOPHAGY AND CONTRACEPTION” (Washington University, priority 2016, published 2018).

Experiments:
Conditions in all cases: cited from earlier work
[1] = biological target: HDAC1 (Homo sapiens, UniProt Q13547)
[2] = biological target: dopamine D2 receptor (Homo sapiens, UniProt P14416)
[3] = biological target: mTOR (Homo sapiens, UniProt P42345)

For CI994, the IC50 [1] is listed as 570 nM.
For Trifluoperazine 2HCl, the IC50 [2] is listed as 1.1 nM.
In the case of GDC-0349, the Ki [3] is given as 3.8 nM and the “inhibitory effect against PI3Kα and other 266 kinases” value ([3]; mTOR vs PI3Kα and other 266 kinases) is given as 790 fold.
